Measurements taken from PubChem BioAssay AID602283 (Johns Hopkins Ion Channel Center, 2012).
The entries are a selection whose mix differs from that of the whole data set. Some results for these compounds are left out of this collection, so the calls shown say nothing about other tests. Calls of active or inactive are those of the source.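 Rule for the calls: active = inhibition exceeding 3 SD of buffer-only control wells (cut at about 26% in these data); inactive = the rest.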

experiment: M3R calcium signalling without RGS4 expression – cell-based, HEK293 M3R, non-induced RGS4, Fluo-4 calcium, counter-screen for RGS4 activator project, primary screen (AID 602283); conditions: HEK293 M3R non-induced RGS4, Fluo4 calcium flux; at 10 µM; stronger effect = higher value; after carbachol challenge at its EC90;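 note: percent drop in integrated peak-minus-baseline over baseline Fluo4 ratio after carbachol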

Compound	inhibition
CN(C)C1CCCC1OC(=O)C(O)(c1ccccc1)c1ccccc1 (stereo not drawn)	active: 67.8%
C=CCN1CCN(CCOC(=O)C(O)(c2ccccc2)c2ccccc2)CC1	active: 74.3%
CCN(CC)CC(C)C(C)OC(=O)C(O)(c1ccccc1)c1ccccc1 (stereo not drawn)	active: 88.8%
